# Reference: publication PMC7617978, “Anti-trypanosomal quinazolines targeting lysyl-tRNA synthetases show partial efficacy in a mouse model of acute Chagas disease” (Science translational medicine, 2025)
# By UniProt entry, the sequences of proteins in these tests, tags left out.
# UniProt P08684, whole entry: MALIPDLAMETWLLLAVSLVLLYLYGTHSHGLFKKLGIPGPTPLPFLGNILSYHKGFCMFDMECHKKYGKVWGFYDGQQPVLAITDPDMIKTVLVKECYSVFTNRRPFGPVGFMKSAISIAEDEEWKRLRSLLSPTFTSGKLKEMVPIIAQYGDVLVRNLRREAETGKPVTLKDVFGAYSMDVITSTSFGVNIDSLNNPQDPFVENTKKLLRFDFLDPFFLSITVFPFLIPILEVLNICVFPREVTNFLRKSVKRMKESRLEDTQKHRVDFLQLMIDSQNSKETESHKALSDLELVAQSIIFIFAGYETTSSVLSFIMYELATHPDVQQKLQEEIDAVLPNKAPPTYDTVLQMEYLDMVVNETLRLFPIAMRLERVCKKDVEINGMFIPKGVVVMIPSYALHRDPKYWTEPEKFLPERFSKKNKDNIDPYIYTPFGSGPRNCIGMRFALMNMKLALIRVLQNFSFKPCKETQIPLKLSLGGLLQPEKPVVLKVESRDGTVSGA
# UniProt P10635, whole entry: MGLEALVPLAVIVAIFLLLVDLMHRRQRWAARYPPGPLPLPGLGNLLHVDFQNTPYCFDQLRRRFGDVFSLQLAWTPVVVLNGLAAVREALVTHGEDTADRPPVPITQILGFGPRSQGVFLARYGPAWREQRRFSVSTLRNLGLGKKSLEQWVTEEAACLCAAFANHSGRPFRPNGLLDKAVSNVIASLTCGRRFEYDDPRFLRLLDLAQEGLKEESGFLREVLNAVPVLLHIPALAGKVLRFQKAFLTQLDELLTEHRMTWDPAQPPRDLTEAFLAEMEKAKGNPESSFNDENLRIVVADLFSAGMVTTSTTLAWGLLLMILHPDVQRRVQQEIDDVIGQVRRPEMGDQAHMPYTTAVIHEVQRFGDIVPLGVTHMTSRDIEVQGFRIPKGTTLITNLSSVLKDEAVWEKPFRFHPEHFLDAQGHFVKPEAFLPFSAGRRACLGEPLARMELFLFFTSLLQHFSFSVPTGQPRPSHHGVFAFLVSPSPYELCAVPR
# Legend:
# T. b. brucei BSF = experiment: Drug sensitivity assay, T. b. brucei bloodstream forms; type: cell-based; settings: KRS1 OE
# [1] = test system: T. cruzi (Sylvio X10/7A1 strain) intracellular amastigote (in Vero cells); type: cell-based; settings: KRS1 OE
# CYP3A4 = CYP3A4 (Homo sapiens, UniProt P08684); experiment: In vitro CYP inhibition, 3A4; type: in vitro ADME
# Protocol: (§1) Compounds were screened for CYP inhibition activity using the protocol established by TCG Lifesciences (India). The activity of five CYP450 isoforms: 1A2; 2C9; 2D6, 3A4; and 2C19 was monitored in the presence of test or control (miconazole) compounds at 10 µM. Reactions were terminated after 10 min (30 min for CYP2C19) by the addition of acetonitrile, centrifuged and analysed via LC-MS/MS. […]
# [2] = test system: T. cruzi epimastigote lysates; experiment: Isothermal proteome profiling (iTPP), other hit proteins; type: binding; settings: 10× EC50, 48°C
# Protocol: (§2) T. cruzi epimastigote lysates were generated as previously described ([29]). Isothermal TPP assays were performed as previously described ([25]). […] Data processing and analyses were performed as previously described ([25]), except proteins were identified via searches against the T. cruzi Dm28C proteome (tritrypdb.org, version 49).
# [3] = test system: Lysyl-tRNA synthetase 1 (KRS1); experiment: Isothermal proteome profiling (iTPP), TcKRS1; type: binding, T. cruzi; settings: KRS1 (C4B63_45g239); lysate, compound at 10× EC50, 48°C
# Protocol: as §2
# [4] = test system: T. cruzi (Sylvio X10/7A1 strain) epimastigote; type: cell-based; settings: KRS1 OE
# [5] = test system: L. donovani (LdBOB) promastigote; experiment: Drug sensitivity assay, L. donovani promastigotes; type: cell-based; settings: KRS1 OE
# CYP2D6 = CYP2D6 (Homo sapiens, UniProt P10635); experiment: In vitro CYP inhibition, 2D6; type: in vitro ADME
# Protocol: as §1
# [6] = Conserved hypothetical protein (C4B63_49g169)
# [7] = Small nuclear ribonucleoprotein Sm-E (C4B63_42g593)
structure (smiles),measurement,setting,value
"Cc1nc(N)c2c(F)c(F)c(NC3CCCC3)c(F)c2n1 [DMU371, N7-Cyclopentyl-5,6,8-trifluoro-2-methylquinazoline-4,7-diamine]",Fold-shift (relative to WT),T. b. brucei BSF,7 fold
same,Fold-shift (relative to WT),[1],4 fold
same,"inhibition at 10 min, 10 µM",CYP3A4,13 ± 3%
same,Abundance Log2 fold change Rep 1,[2]; [6],2.05
same,Abundance Log2 fold change Rep 2,[2]; [6],1.61
same,Abundance Log2 fold change Rep 1,[2]; [7],3.04
same,Abundance Log2 fold change Rep 2,[2]; [7],1.56
same,Abundance Log2 fold change Rep 1,[3],2.50
same,Abundance Log2 fold change Rep 2,[3],2.97
same,Fold-shift (relative to WT),[4],10 fold
same,Fold-shift (relative to WT),[5],4 fold
same,"inhibition at 10 min, 10 µM",CYP2D6,6.3 ± 0.1%
